Data set [1] can be described thus: Solubility testing in gas bubbler/sparger with continuous 9 mol % CO2 in N2. The conditions noted are these: 9 mol % CO2, ambient conditions.
Data set [2] in a line: Preliminary solubility testing of CO2-loaded amino/amino-sulfonic acid solutions (precipitation temperature). The conditions noted are these: ambient pressure, test range −10° C. to 40° C. Format: physicochemical. Here is the method: Preliminary solubility testing was carried out with various amino and amino-sulfonic acids and blends thereof to determine the propensity for solids precipitation. These blends were loaded with CO2 under representative process conditions: a CO2 loading from 0.35 to 0.45 mol CO2/mol alkalinity at ambient pressure and a temperature from −10° C. to 40° C. CO2 loading was achieved by addition of potassium bicarbonate instead of some potassium hydroxide as the neutralizing agent. The loading (in mol CO2 per mol alkalinity) was determined from the following equation: […]

Each structure is given as a SMILES string.

As for `NCCS(=O)(=O)O` [3 m TAU, taurine], in data set [1], the “precipitation when 9 mol % CO2 continuously injected (in words)” value is reported as “showed signs of precipitation”. The “Precipitation Temperature” value in data set [2] (Loading 0.35 mol CO2/mol alk.) worked out at 13 °C; in data set [2] (Loading 0.40 mol CO2/mol alk.) it was 31 °C; in data set [2] (Loading 0.45 mol CO2/mol alk.) it was 37 °C.

Values taken from patent publication US20250196055A1, “PROCESS FOR CAPTURING CO2 FROM A MOBILE SOURCE USING AN AMINO ACID SOLVENT” (SAUDI ARABIAN OIL COMPANY, priority 2021, published 2025).
